Data taken from article PMC9866366 (Pharmaceutics, 2023).

How the values were obtained:
[1] = test system: PANC-1 cells; settings: 24 h exposure, medium with or without 5 mM glucose, up to 9 µM
Method: (§1) Cells were seeded at a density of 25,000 cells/well (BxPC-3) and 30,000 cells/well (PANC-1) in Nunc MicroWell 96-Well Black Optical-Bottom Plates with Polymer Base (total volume: 100 µL). Cells were first incubated overnight at 37 °C, 5% CO2 to permit adherence, after which the medium in each well was aspirated, briefly washed once with 100 µL/well of PBS (pH 7.4) and replaced with 100 µL of either RPMI 1640 (BxPC-3, #11879020) or DMEM (PANC-1, #11966025) supplemented with or without 5 mM glucose to create the ‘normal glucose’ and ‘low glucose’ media, respectively. This 5 mM glucose concentration was selected to reflect the physiological concentration of glucose in plasma. […] Endpoint fluorescence was quantified as described above.
(§2) Blank correction (wells containing medium only) was first performed on the raw fluorescence–concentration data from the plate reader. Cell viability was then calculated as a percentage by normalizing to the fluorescence of the wells containing the lowest drug concentration (50.8 pM for BxPC-3, 457 pM for PANC-1). The resulting data from three independent experiments (each in technical duplicate) was then plotted on GraphPad Prism 9 and analyzed using the built-in ‘[Inhibitor] vs. response—Variable slope (four parameters)’ equation.

[2] = test system: BxPC-3 cells; settings: 24 h exposure, medium with or without 5 mM glucose, up to 1 µM
Method: as §1, §2

trichoderin A [(3)]
Cytotoxicity against PANC-1 under 'low glucose' vs 'normal glucose' (in words) [1]: selective toxicity under the ‘low glucose’ condition
Cytotoxicity against BxPC-3 under 'low glucose' vs 'normal glucose' (in words) [2]: selective toxicity under the ‘low glucose’ condition
